The text below walks through data of US20260108687A1 (Belhaven BioPharma Inc., priority 2024, published 2026).

The structures appear in SMILES notation.

One may read the Cmax as the maximum level reached in the sampled fluid or tissue.

This data set in a line: Phase 1 clinical study / Study 101: plasma epinephrine pharmacokinetics. Type of data set: in vivo. Conditions: human, 0.5 mg IM, read-out: mean baseline-corrected Cmax. The procedure: Nor did the subject participate in Treatment D.
Blood samples were collected prior to dosing at 60, 30, and 0 minutes before dosing, and after dosing at 2, 5, 7, 10, 15, 20, 25, 30, 45, 60, 90, 120, 180, 240, and 360 minutes. […] Blood samples were analyzed in 8 runs with between run accuracy of −3.66% to 4.02% and precision of 1.30% to 9.94%. […] Recovery was >75% and freeze-thaw, short-term and long-term stability (584 days) were all shown to be acceptable; the analyte was stable under all conditions tested.
Baseline correction was accomplished using the average of the measured concentrations at nominal times of −60, −30, and 0 minutes before dosing.
Each patient was provided each treatment of the trial with 72-hour washout periods between each treatment, beginning with a 3.5 mg intranasal dose, followed by a 0.3 mg intramuscular dose, followed by a 0.5 mg intramuscular dose, and concluding with a 5.5 mg intranasal dose, with a safety follow-up performed 3 to 5 days after the final dose was administered. The primary endpoints of the study were pharmacokinetic measurements and assessments of comparative bioavailability, while the secondary endpoints were safety concerns and pharmacodynamic assessments.

For `CNC[C@H](O)c1ccc(O)c(O)c1` [Epinephrine IM, epinephrine], the Cmax turned out to be 396 µg/mL.
